Binding of CDR-mutated scFvs to a peptide of the spike HR2 region

Data: MIT Lincoln Laboratory AlphaSeq set, Engelhart et al. 2022, doi:10.1038/s41597-022-01779-4, as distributed in FLAb.

Target peptide (SARS-CoV-2 spike, HR2 region): PDVDLGDISGINAS

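The starting antibody came from a phage panning campaign against this peptide. Variants in AAYL52 differ from the parent at up to three CDR positions; double and triple changes were sampled at random. In AlphaSeq, yeast of one mating type display the scFv and yeast of the other type display the target. After mating in shaken culture at 30 °C for 16 h, diploids were selected and their barcode pairs sequenced. Each replicate has its own calibration line, from reference interactions of the BCL2 family. Mating was done three times.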

The variants keep the heavy chain, the linker and the frameworks of Ab-95 (scFv order VH, a 15-residue (Gly4Ser)3 linker, VL).
VH: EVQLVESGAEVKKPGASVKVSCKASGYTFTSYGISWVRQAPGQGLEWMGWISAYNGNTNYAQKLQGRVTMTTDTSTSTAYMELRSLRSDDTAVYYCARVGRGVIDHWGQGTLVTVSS
VL: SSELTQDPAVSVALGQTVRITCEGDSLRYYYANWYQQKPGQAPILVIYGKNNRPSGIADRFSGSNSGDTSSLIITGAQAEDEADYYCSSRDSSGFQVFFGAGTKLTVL

Each variant is given by its three light chain CDRs, as the data file delimits them; those of the parent are EGDSLRYYYAN, GKNNRPS, SSRDSSGFQVF. Numbers give log10(Kd / nM), so 0 is 1 nM and 3 is 1 µM. Smaller is tighter. A mean of the replicates is given; it leaves out those without a signal. "ND" marks a missing value. The strain was present, yet no cells mated with the target were sequenced in that replicate, which points to weak or no binding. Three control strains display no target. For library AAYL52, 28% of the pairings with them gave a signal, with a median of 3.91 and one signal in twenty below 2.90, so weak values seen in few replicates may be background. For each scFv, signals with the empty controls are counted beside the result.

The variant EGDSLRYYWAN, DKNNRPF, SSRDSSGFQVF gave 4.21, 3.63, 4.54 (mean 4.13; controls 3 of 9).
The variant EGDSLRYYYAN, GKRNRPH, SSRDSSGFQVD gave ND, 2.95, 3.39 (mean 3.17; controls 1 of 9).
The variant EGDSLRYYYAQ, EKNNRPS, GSRDSSGFQVF gave 3.26, ND, ND (controls 0 of 9).
The variant EGDSLRYYYAR, GTNNRPS, SSRDSSGFQVF gave 2.59, 2.81, 3.27 (mean 2.89; controls 3 of 9).
The variant EGDSQRYYYAN, VKNNRQS, SSRDSSGFQVF gave ND, ND, ND (controls 0 of 9).
The variant ERDSLRYYYNN, GKNNRPS, SSRESSGFQVF gave ND, ND, ND (controls 2 of 9).
The variant EGDSLRYYYSN, GKNNRPM, SSRDSSGFQVF gave 2.20, 2.44, 3.17 (mean 2.60; controls 3 of 9).
The variant EGDSLRYYYAN, GKNNRPS, SSRDSSGFEVF gave 2.32, 2.57, 2.74 (mean 2.54; controls 4 of 9).
The variant EGDSLRYYGAN, GKNNRPH, SSRDSGGFQVF gave 1.92, 2.06, 1.79 (mean 1.92; controls 5 of 9).
The variant EGWSLRYYYAN, GKNNRPS, SSRRSSAFQVF gave ND, 5.38, 2.83 (mean 4.11; controls 4 of 9).
The variant EGDSLRYYYAN, VENNRPS, SSRDSSGFYVF gave 3.50, ND, 3.30 (mean 3.40; controls 6 of 9).
The variant EGDSLRDYYAN, GKNNRPS, SSRASFGFQVF gave 1.66, 2.20, 1.92 (mean 1.93; controls 0 of 9).
The variant EGDSLRYYYAN, GKNNRPV, SSRDESGFQVF gave 2.80, 3.33, 2.74 (mean 2.95; controls 1 of 9).
The variant EWDMLRYYYAN, GKNNRPS, SSRDSSGFQVF gave 3.82, ND, ND (controls 2 of 9).
The variant EGSSLRYYYAN, GKNNRPS, SSRHSSHFQVF gave 2.99, 3.51, 4.44 (mean 3.65; controls 1 of 9).
The variant EGDSLIYYYAN, MKQNRPS, SSRDSSGFQVF gave 4.23, ND, 4.19 (mean 4.21; controls 5 of 9).
The variant EGDVLRYYYAN, GKNNRPS, SSRDDSGFTVF gave 3.84, 3.72, ND (mean 3.78; controls 0 of 9).
The variant EGDLLRYYYAN, GKNNRIE, SSRDSSGFQVF gave ND, ND, ND (controls 3 of 9).
The variant EGDSLDYYYYN, GKNNRPS, SSRDSTGFQVF gave 3.44, 3.68, ND (mean 3.56; controls 1 of 9).
The variant EGDSLRFYYAN, QKNNRPS, SSRDSSGFFVF gave 4.12, ND, 3.91 (mean 4.01; controls 2 of 9).
The variant TGDSLRYYYAN, GKNNRPF, SSRDSSGFQVF gave 1.94, 2.27, 2.09 (mean 2.10; controls 5 of 9).
The variant EGDSLRYYYAN, GKNTRPS, SSGISSGFQVF gave 2.08, 1.76, 1.63 (mean 1.83; controls 3 of 9).
The variant EGDSLRYYYAN, GKNKRPR, SSRDSSGFQVF gave 3.08, 3.70, ND (mean 3.39; controls 0 of 9).
The variant EGDSLRYYYAN, GKNNRPS, SSYDSSGFQVF gave 2.65, 2.77, 3.85 (mean 3.09; controls 4 of 9).
The variant EIDSLRYYYAN, GKNNRPS, SSRDNSGFSVF gave 4.88, 4.23, 4.42 (mean 4.51; controls 4 of 9).
The variant EGDSLRIYYAY, GKNNRPS, VSRDSSGFQVF gave ND, ND, ND (controls 2 of 9).
The variant EGDSLRYYCAN, GKNNHPY, SSRDSSGFQVF gave 2.22, 2.63, 2.68 (mean 2.51; controls 4 of 9).
The variant EGDYLRSYYAN, GGNNRPS, SSRDSSGFQVF gave 2.60, 3.02, 3.18 (mean 2.93; controls 3 of 9).
The variant EGDSLRYYYIC, GKNNRPS, SWRDSSGFQVF gave 3.64, 4.34, 4.28 (mean 4.09; controls 7 of 9).
The variant EGDSLRYYYAN, GKNNRPS, SPRDSSGFAVQ gave 3.13, ND, ND (controls 2 of 9).
The variant EGDSLRYYYQN, GKNNRPA, SSVDSSGFQVF gave ND, ND, ND (controls 2 of 9).
The variant EGDKLRYYYAK, GKNNRPS, SSRDSSGDQVF gave 4.44, ND, ND (controls 4 of 9).
The variant EGDSLRYYYAN, GMNMHPS, SSRDSSGFQVF gave 3.09, 2.61, 2.67 (mean 2.79; controls 2 of 9).
The variant EGDSLRYYYAN, GKVNSGS, SSRDSSGFQVF gave ND, 3.45, ND (controls 1 of 9).
The variant EGASLRYYYIN, GKNNRPS, SCRDSSGFQVF gave 3.15, 2.89, 3.53 (mean 3.19; controls 6 of 9).
The variant EGDSLRYGYFN, GKNNRPS, SSRGSSGFQVF gave ND, 4.06, ND (controls 2 of 9).
The variant EEDSLRYYYAN, PKNNRPS, SSRDSSGFQVD gave 3.87, ND, 4.26 (mean 4.06; controls 4 of 9).
The variant EGDSLRYYMAN, KKNNRPS, SSYDSSGFQVF gave ND, 4.57, ND (controls 1 of 9).

4 of these entries, quoted again:

The variant ERDSLRYYYNN, GKNNRPS, SSRESSGFQVF showed ND, ND, ND (controls 2 of 9).
The variant EGDSLRYYMAN, KKNNRPS, SSYDSSGFQVF showed ND, 4.57, ND (controls 1 of 9).
The variant EGDSLRYYYAN, VENNRPS, SSRDSSGFYVF showed 3.50, ND, 3.30 (mean 3.40; controls 6 of 9).
The variant EEDSLRYYYAN, PKNNRPS, SSRDSSGFQVD showed 3.87, ND, 4.26 (mean 4.06; controls 4 of 9).